Experimental data as given in patent publication US20140363530A1, “COMPOSITION COMPRISING THE EXTRACT OF PINE TREE LEAF OR THE COMPOUNDS ISOLATED THEREFROM FOR THE PREVENTION AND TREATMENT OF CANCER DISEASE BY INHIBITING HPV VIRUS AND THE USES THEREBY” (priority 2012, published 2014).

Columns and labels:
[1] = test system: MES-SA (human uterine carcinoma); experiment: SRB cytotoxicity test, MES-SA; type: cell-based
Method: (§1) To determine the cytotoxicity against human tumor cell line of the test samples prepared in Examples, following sulforhodamin B (SRB) bioassy test was performed according to the method disclosed in the literature (Skehan, P., et al., J. Natl. Cancer Inst., 82, 1990, 1107-1112).
(§2) Various human tumor cell lines, i.e., A-549 (human adenocarcinoma of lung, NCI), SK-OV-3 (human ovarian tumor, NCI), SK-MEL-2 (human malignant melanoma, NCI), HCT15 (human colon adenocarcinoma, NCI), MES-SA (human uterine carcinoma, NCI) and MES-SA/DX5 (multidrug resistant carcinoma subline of MES-SA, NCI) were used in the test.
(§3) The subcultured cell lines were detached from the surface of wall using by trypsin-EDTA solution and adjusted to various concentration of cell lines, i.e., 5×10^3 cells/well (A-549, HCT15), 1×10^4 cells/well (SK-MEL-2), 5×10^3 cells/well (SK-OV-3) in 96-well flat bottom microplate. The inoculated cell lines were incubated in CO2 incubator (MCO-20AIC, SANYO Electric Co., LTd.) to be attached on the bottom of incubator and the culture media was removed with aspirator. […] The cell plates were shaked with titer plate shaker (KOMA Orbital Shaker KE011, KOMABIOTech) for 10 mins to exude the staining solution and to determine the absorbance at 520 nm using by microplate spectrophotometer (Sunrise, TECAN).

[2] = test system: MES-SA/DX5 (multidrug resistant carcinoma subline of MES-SA); experiment: SRB cytotoxicity test, MES-SA/DX5; type: cell-based, human; settings: Table 3, 48 hours
Method: as §1, §2, §3

9,14-dihydroxytotara-7-ene-8-oic acid [compound (a)]
Cytotoxicity IC50, MES-SA [1]: 77.22 µg/mL
Cytotoxicity IC50, MES-SA/DX5 [2]: 80.57 µg/mL
